Apparent affinities of Ab-14 variants for a coronavirus HR2 peptide

From the AlphaSeq antibody data of Li et al. 2023 (doi:10.1038/s41467-023-39022-2), copy in the FLAb collection.

Antigen: PDVDLGDISGINAS, a 14-residue peptide of the SARS-CoV-2 spike HR2 region.

Parent scFv Ab-14: VH joined to VL by a 15-residue (Gly4Ser)3 linker. Changes lie in the heavy chain CDRs alone.
VH: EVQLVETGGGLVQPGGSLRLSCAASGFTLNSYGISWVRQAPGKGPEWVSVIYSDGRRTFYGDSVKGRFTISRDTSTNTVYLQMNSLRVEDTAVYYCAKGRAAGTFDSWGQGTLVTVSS
VL: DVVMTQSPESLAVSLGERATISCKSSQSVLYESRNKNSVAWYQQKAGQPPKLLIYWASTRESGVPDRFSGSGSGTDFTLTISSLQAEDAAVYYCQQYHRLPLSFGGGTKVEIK

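Designed CDR sequences, proposed from the first random library and measured here. Several design methods are mixed in this list. The scFvs were displayed on barcoded MATa yeast, the peptide on MATalpha yeast. Pairs that bind mate more often; barcode pairs of the diploids are counted by sequencing. The ratio of observed to expected reads was calibrated, replicate by replicate, on BCL2-family standards whose Kd was known from biolayer interferometry. There are six technical replicates.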

Each variant is given by its three heavy chain CDRs, as the data file delimits them; those of the parent are GFTLNSYGIS, VIYSDGRRTFYGDSVK, GRAAGTFDS. Variants here have more than six changes. Each Kd is an estimate from the mating assay, the geometric mean of the replicates in which the pair was seen; lower is stronger. Where no diploid with the target was found in any replicate, the entry reads "no signal": below detection, most likely a poor binder, though not proof of it. Order: sorted from the lowest average up, undetected variants last. In the paper, a design with two or fewer of six values counts as a poor binder. The range of this assay differs from that of the first round, and the authors advise against merging the two. The parent sequence was in this pool as ten entries: three were never detected, three once, and four in most replicates, with averages from 2.2 nM to 240 nM. Three control strains display no target. For all heavy chain designs, 1% of the pairings with them gave a signal, with a median of 120 nM and one signal in twenty below 7.0 nM, so weak values seen in few replicates may be background.

| CDR-H1 | CDR-H2 | CDR-H3 | apparent Kd | seen in |
|---|---|---|---|---|
| GFDLNDYGIS | VIYADGRRTAYIDSVK | GEVAGTFDA | 150 pM | 6/6 |
| GFDINEYGIS | VIYADGRRTFYADSVK | GQNAGTFDS | 150 pM | 6/6 |
| GFDLNEYGIS | VIYADGKRTFYSDSVK | GENAGTFDV | 180 pM | 6/6 |
| GFDLNEYGIS | VIYADGVRTAYADSVK | GNVAGTFDK | 190 pM | 6/6 |
| GFDLNEYGIS | VIYADGSRTAYADDVK | GNTAGTFDV | 210 pM | 6/6 |
| GFDLNEYGIS | VIYADGKRTFYSDSVK | GNVAGTFDK | 250 pM | 6/6 |
| GFDLNEYGIS | VIYADGKRTFYSDNVK | GNVAGTFDI | 260 pM | 6/6 |
| GFNLDEYGIS | VIYADGVRTAYSDSVK | GNVAGTFDV | 280 pM | 6/6 |
| GFNLDEYGIS | VIYADGRRTFYQDSVK | GEVAGTFDM | 290 pM | 6/6 |
| GFDLNEYGIS | VIYADGRRTFYADDVK | GNVAGTFDL | 310 pM | 6/6 |
| GFDLNEYGIS | VIYADGSRTAYADSVK | GQVAGTFDI | 320 pM | 6/6 |
| GFNLEDYGIS | VIYADGRRTFYVDSVK | GEVAGTFDV | 330 pM | 6/6 |
| GFDLDEYGIS | VIYADGQRTAYADSVK | GEVAGTFDI | 330 pM | 6/6 |
| GFDLDEYGIS | VIYADGRRTAYADSVK | GQVAGTFDL | 340 pM | 6/6 |
| GFDLNEYGIS | VIYADGMRTAYIDSVK | GNNAGTFDQ | 360 pM | 6/6 |
| GFDLNEYGIS | VIYADGQRTAYSDSVK | GEVAGTFDT | 370 pM | 6/6 |
| GFDLNEYGIS | VIYADGVRTAYADSVK | GVNAGTFDV | 370 pM | 6/6 |
| GFDLDEYGIS | VIYADGRRTFYSDSVK | GSQAGTFDV | 480 pM | 6/6 |
| GFDLNEYGIS | VIYADGRRTFYADSVK | GGVAGTFIQ | 510 pM | 6/6 |
| GFDLDEYGIS | VIYADGQRTAYSDSVK | GQNAGTFDV | 520 pM | 6/6 |
| GFDLNEYGIS | VIYADGRRTFYADSVK | GENGGTFDV | 570 pM | 6/6 |
| GFDLNEYGIS | VIYADGMRQAYADSVK | GENAGTFDL | 570 pM | 6/6 |
| GFDLDEYGIS | VIYADGMRTAYADDVK | GNNAGTFDV | 630 pM | 6/6 |
| GFNFDEYGIS | VIYADGKRKAYSDSVK | GLSSGTMEV | 670 pM | 6/6 |
| GFDLDEYGIS | VIYADGMRTFYADSVK | GEIAGTFDV | 740 pM | 6/6 |
| GFDLNEYGIS | VIYADGKRTFYQDSVK | GEIAGTFDQ | 750 pM | 6/6 |
| GFDLNEYGIS | VIYADGRRTAYADSVK | GDNAGTFDV | 760 pM | 6/6 |
| GFDLNEYGIS | VIYADGMRTAYADTVK | GENAGTFDV | 800 pM | 6/6 |
| GFDLEDYGIS | VIYADGRRTAYIDSVK | GEAAGTFDL | 1.6 nM | 6/6 |
| GFDLDEYGIS | VIYADGVRTAYVDSVK | GNQAGTFDV | 1.7 nM | 6/6 |
| GFDLDEYGIS | VIYADGKRTAYSDSVK | GNEAGTFDI | 2.2 nM | 1/6 |
| GFDLNEYGIS | VIYADGRRTFYADSVK | GNQAGTFIS | 4.2 nM | 6/6 |
| GFNIGEYGIS | VIYADGKRTAYSESVK | GNSAGTFNH | 4.5 nM | 6/6 |
| GFDLNEYGIS | VIYADGMRTAYADSVK | GNEAGTFDI | 5.5 nM | 6/6 |
| GESLDEYGIS | VIYADGMRTAYTDKVK | GLVAATLVD | no signal | 0/6 |
| GFNLEEYGIS | VIYADGMRTFYTDKVK | GGLDDQEGY | no signal | 0/6 |
| GKSLDEYGIS | VIYADGMRAEYQNQVK | GTTVGDFFV | no signal | 0/6 |
| GFELEEYGIS | VIYADGKRTFYTNAVK | GTWGVFGLG | no signal | 0/6 |
| GFDLQEQGIS | VIYADGKRTAYAQNVK | GYIVGDIFD | no signal | 0/6 |
| GNSLQEYGIS | VIYADGMRNQYAQSVK | GMEAGVFVY | no signal | 0/6 |
| GFDINEYGIS | VIYADGNRIAYQDQVK | GFNEGSFVI | no signal | 0/6 |
| GFNIDEYGIS | VIYADGVRTAYHDKVK | GFNQVLSLD | no signal | 0/6 |
| GKDLYEYGIS | VIYADGTRTAAANTVK | GEIAGTLNV | no signal | 0/6 |
| GFSLDEMGIS | VIYADGQRSFYQANVK | GVNSGTFFV | no signal | 0/6 |
| GFDLGEYGVS | VIYADGKRTHYADHVK | GVNLGFFDT | no signal | 0/6 |
| GQDLNEYGIS | VIYADGFRTAYADTVK | GTIGFMLDS | no signal | 0/6 |

The opening 7 entries, copied out:

| CDR-H1 | CDR-H2 | CDR-H3 | apparent Kd | seen in |
|---|---|---|---|---|
| GFDLNDYGIS | VIYADGRRTAYIDSVK | GEVAGTFDA | 150 pM | 6/6 |
| GFDINEYGIS | VIYADGRRTFYADSVK | GQNAGTFDS | 150 pM | 6/6 |
| GFDLNEYGIS | VIYADGKRTFYSDSVK | GENAGTFDV | 180 pM | 6/6 |
| GFDLNEYGIS | VIYADGVRTAYADSVK | GNVAGTFDK | 190 pM | 6/6 |
| GFDLNEYGIS | VIYADGSRTAYADDVK | GNTAGTFDV | 210 pM | 6/6 |
| GFDLNEYGIS | VIYADGKRTFYSDSVK | GNVAGTFDK | 250 pM | 6/6 |
| GFDLNEYGIS | VIYADGKRTFYSDNVK | GNVAGTFDI | 260 pM | 6/6 |